# In PubChem BioAssay AID588492 (Sanford-Burnham Center for Chemical Genomics, 2011):
# The list shows a part of the results, in another mix than the full data. Some tests of the compounds listed are not included; inactive here does not mean inactive elsewhere. Activity calls are given as the source filed them.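 Rule for the calls: active = compounds giving at least 50% protection of heart cells from peroxide-induced death in the single-dose screen, raw or plate-pattern-corrected value; inactive = the rest.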
# Assay: cardioprotection against H2O2-induced cell death, primary screen, uHTS, H9c2 cells, ATPLite luminescence (AID 588492);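 note: 0% = DMSO wells with peroxide and 100% = DMSO wells without peroxide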
# Conditions: H9c2 cardiomyocytes, H2O2 injury protection, 2 h, at 20 µM, stronger effect = higher value
row,SMILES,protection from H2O2 cell death
1,CN(C)C1(CNC(=O)c2ccc(Br)cc2)CCCCC1,inactive: -2.2%
2,COc1cc(C(=O)NCC2(N(C)C)CCCCC2)c([N+](=O)[O-])cc1OC,inactive: 0.3%
3,COc1ccc(Cl)cc1C(=O)NCC1(N(C)C)CCCCC1,inactive: 3.3%
4,COc1cccc(C(=O)NCC2(N3CCCCC3)CCCCC2)c1,inactive: -1%
5,O=C(NCC1(N2CCCCC2)CCCCC1)c1cccc(Cl)c1,inactive: 2.2%
6,O=C(OC1CN2CCC1CC2)C(CO)(c1ccccc1)c1ccccc1 (stereo unspecified),inactive: 4.8%
7,COc1ccc(Br)c(C(=O)NCC2(N3CCCCC3)CCCCC2)c1,inactive: 5.9%
8,C=C(C)C#CC(O)(C(=O)OC1CCN(C)CC1)c1ccccc1 (stereo unspecified),inactive: -6.3%
9,CN(C)c1cccc(C(=O)NCC2(N(C)C)CCCCC2)c1,inactive: 4.4%
10,O=C(OCCN1CCCC1)C(O)(c1ccccc1)c1ccccc1,inactive: 4%
11,CC(C)Oc1ccc(C(=O)NCC2(N(C)C)CCCCC2)cc1,inactive: -0.2%
12,O=C(NCC1(N2CCCCC2)CCCCC1)c1cc([N+](=O)[O-])ccc1Cl,inactive: -8.3%
13,CN1[C@@H]2CC[C@H]1CC(OC(=O)C(O)(c1ccccc1)c1ccccc1)C2 (stereo partly specified),inactive: 3.5%
14,CC(C)N1C(=O)CC2(CCN(CCOC(=O)C(O)(c3ccccc3)c3ccccc3)CC2)C1=O,inactive: 3.3%
15,COc1cc(SC)ccc1C(=O)NCC1(N(C)C)CCCCC1,inactive: 7.5%
16,CCN(CC)CC(C)C(C)OC(=O)C(O)(c1ccccc1)c1ccccc1 (stereo unspecified),inactive: 17.6%
17,Cc1ccc(C(=O)NCC2(N3CCCCC3)CCCCC2)cc1,inactive: -1.1%
18,CN(C)c1ccc(C(=O)NCC2(N(C)C)CCCCC2)cc1,inactive: 12.2%
19,CN(C)C1CCCC1OC(=O)C(O)(c1ccccc1)c1ccccc1 (stereo unspecified),inactive: 3.2%
20,Cc1ccccc1C(=O)NCC1(N2CCCCC2)CCCCC1,inactive: -0.2%
21,O=C(NCC1(N2CCCCC2)CCCCC1)c1cc(F)c(F)cc1Cl,inactive: 2.7%
22,C=CCN1CCN(CCOC(=O)C(O)(c2ccccc2)c2ccccc2)CC1,inactive: 8.2%
23,O=C(NCC1(N2CCCCC2)CCCCC1)c1cccc(Br)c1,inactive: -2.6%
24,CCN1CCCC(OC(=O)C2(O)c3ccccc3C=Cc3ccccc32)C1 (stereo unspecified),inactive: 12.7%
25,Cc1cc(C(=O)NCC2(N3CCCCC3)CCCCC2)ccc1[N+](=O)[O-],inactive: 0.7%
26,COc1ccc(C(=O)NCC2(N(C)C)CCCCC2)cc1,inactive: 3.3%
